# Antibody variant affinities, Ab-14 heavy chain, assay 1

The measurements come from Engelhart et al. 2022 (doi:10.1038/s41597-022-01779-4) through the FLAb antibody collection.

Binding partner: SARS-CoV-2 spike HR2 peptide, sequence PDVDLGDISGINAS.

Parent scFv Ab-14: VH joined to VL by the linker GGGGSGGGGSGGGGS. Changes lie in the heavy chain CDRs alone.
VH: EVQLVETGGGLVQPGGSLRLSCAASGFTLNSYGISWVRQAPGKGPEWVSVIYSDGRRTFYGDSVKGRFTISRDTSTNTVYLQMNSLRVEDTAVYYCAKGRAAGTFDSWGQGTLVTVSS
VL: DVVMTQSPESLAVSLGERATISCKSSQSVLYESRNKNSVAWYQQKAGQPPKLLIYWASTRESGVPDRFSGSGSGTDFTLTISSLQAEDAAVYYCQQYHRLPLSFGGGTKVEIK

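Phage display of a naive human antibody library on the peptide gave the parent. Library AAYL49 holds single substitutions and randomly drawn double and triple substitutions in the CDRs. AlphaSeq pools MATa yeast showing the antibodies with MATalpha yeast showing the peptide. Binding brings cells together so that they mate, and sequencing counts the barcode pairs among the diploids. Each replicate has its own calibration line, from reference interactions of the BCL2 family. Each pool was mated in three replicate cultures.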

The whole VH of each variant is written out. Numbers give log10(Kd / nM), so 0 is 1 nM and 3 is 1 µM. Smaller is tighter. "nd" means that the variant was in the library but no mating with the target was seen in that replicate; the authors take this as a sign of poor binding, and no number exists.

| VH | log10 Kd (nM) by replicate | empty controls |
|---|---|---|
| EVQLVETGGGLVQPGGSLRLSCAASGFTLNSYPISWVRQAPGKGPEWVSVIYSDGNYTFYGDSVKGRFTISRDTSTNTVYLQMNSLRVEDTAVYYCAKGRAAGTFDSWGQGTLVTVSS | nd / 5.32 / nd | 1 of 9 (4.34) |
| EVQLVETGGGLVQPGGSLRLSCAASGFTLNSYGISWVRQAPGKGPEWVSVIYSDGRRNFYGDSVGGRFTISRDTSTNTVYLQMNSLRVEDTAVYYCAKGRAAGTFTSWGQGTLVTVSS | nd / 3.98 / nd | 2 of 9 (3.49) |
| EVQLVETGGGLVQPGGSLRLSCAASGWTLNSYGISWVRQAPGKGPEWVSVIYNDGRRTFYGDSVKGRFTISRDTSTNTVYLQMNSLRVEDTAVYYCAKGRAAGTFDSWGQGTLVTVSS | 5.25 / nd / nd | 2 of 9 (3.78) |
| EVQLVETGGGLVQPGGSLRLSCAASGFTLNSYGIFWVRQAPGKGPEWVSVIYSDGRRNFYGVSVKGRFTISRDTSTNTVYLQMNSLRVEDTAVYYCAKGRAAGTFDSWGQGTLVTVSS | nd / nd / nd | 0 of 9 |
| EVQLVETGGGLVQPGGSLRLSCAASGDTLNSYGISWVRQAPGKGPEWVSVIYSDGRRTFYGESVKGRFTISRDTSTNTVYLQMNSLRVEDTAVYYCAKGKAAGTFDSWGQGTLVTVSS | 1.75 / nd / nd | 0 of 9 |
| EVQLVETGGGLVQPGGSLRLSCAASGFCLNSYGISWVRQAPGKGPEWVSVIYNDGRRTFYGDSVKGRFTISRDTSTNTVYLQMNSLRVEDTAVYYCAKGRAAGTLDSWGQGTLVTVSS | nd / nd / nd | 0 of 9 |
| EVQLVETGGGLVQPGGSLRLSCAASGFTLNSYGISWVRQAPGKGPEWVSVYYSDGRRTFWGDSVKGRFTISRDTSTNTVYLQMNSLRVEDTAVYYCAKGRAAGTVDSWGQGTLVTVSS | 5.54 / 4.59 / nd | 3 of 9 (4.69) |
| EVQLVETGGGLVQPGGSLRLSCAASGFTLNSYGCSWVRQAPGKGPEWVSVIYSDGWRTFYGDSVKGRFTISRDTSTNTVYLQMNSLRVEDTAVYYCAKGRAAGTADSWGQGTLVTVSS | 6.13 / nd / 3.81 | 1 of 9 (4.98) |
| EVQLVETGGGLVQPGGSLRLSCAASGFTLNSYGISWVRQAPGKGPEWVSVPYSDGRRTFYCDSVKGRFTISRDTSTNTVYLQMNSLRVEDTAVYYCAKGRAAGTFDEWGQGTLVTVSS | nd / 4.93 / 3.51 | 3 of 9 (4.42) |
| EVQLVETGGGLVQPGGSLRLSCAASGFTLNSYGRSWVRQAPGKGPEWVSVIYSDGRRTFYGDIVKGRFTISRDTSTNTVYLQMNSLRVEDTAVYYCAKGRAAGTFDNWGQGTLVTVSS | 4.37 / 3.55 / nd | 0 of 9 |
| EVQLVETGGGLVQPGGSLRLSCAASGFTLNSPGISWVRQAPGKGPEWVSWIYSDGRRTFYGDSVKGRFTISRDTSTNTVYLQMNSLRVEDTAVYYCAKGRAGGTFDSWGQGTLVTVSS | 4.47 / nd / nd | 1 of 9 (4.29) |
| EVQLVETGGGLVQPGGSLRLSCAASGYTLNSYGISWVRQAPGKGPEWVSVIYSDGRRTFYGDSVKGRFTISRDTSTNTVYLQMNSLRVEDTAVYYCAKGRTAGTYDSWGQGTLVTVSS | 2.11 / 2.48 / 2.42 | 3 of 9 (4.56) |
| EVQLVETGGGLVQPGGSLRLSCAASGFTLNSYGISWVRQAPGKGPEWVSVIYQDGRRTFYGTFVKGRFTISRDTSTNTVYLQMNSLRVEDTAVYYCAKGRAAGTFDSWGQGTLVTVSS | nd / nd / nd | 0 of 9 |
| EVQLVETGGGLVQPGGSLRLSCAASGFTLNSYGISWVRQAPGKGPEWVSVIYLDGIRTFYGDSVKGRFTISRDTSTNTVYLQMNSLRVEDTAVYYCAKGRDAGTFDSWGQGTLVTVSS | 2.76 / nd / nd | 0 of 9 |

In this assay the parent's reference entry averaged 0.65; its copy inside this library read 4.11 (one replicate of three). Three control strains display no target. For library AAYL49, 15% of the pairings with them gave a signal, with a median of 4.06 and one signal in twenty below 2.83, so weak values seen in few replicates may be background. The control count says in how many pairings with the empty strains this scFv gave a signal, with their mean in brackets.